# According to patent US20050288333A1 (priority 2004, published 2005):
# Chains of the proteins cited; added tags and fusions are not shown. Residues count along the entry.
# UniProt Q05941, 23-502: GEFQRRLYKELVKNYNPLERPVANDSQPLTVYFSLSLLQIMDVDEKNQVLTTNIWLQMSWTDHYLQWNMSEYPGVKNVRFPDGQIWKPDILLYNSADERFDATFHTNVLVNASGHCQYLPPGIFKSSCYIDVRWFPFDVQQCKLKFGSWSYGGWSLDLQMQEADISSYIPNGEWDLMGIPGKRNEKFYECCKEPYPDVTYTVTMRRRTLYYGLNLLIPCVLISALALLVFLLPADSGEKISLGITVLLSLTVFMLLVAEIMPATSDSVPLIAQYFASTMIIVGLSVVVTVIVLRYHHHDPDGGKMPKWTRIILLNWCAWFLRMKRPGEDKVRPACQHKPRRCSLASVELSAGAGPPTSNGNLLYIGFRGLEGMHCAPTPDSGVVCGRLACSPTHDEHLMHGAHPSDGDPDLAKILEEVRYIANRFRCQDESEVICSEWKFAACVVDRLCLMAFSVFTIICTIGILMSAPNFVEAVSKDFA
# UniProt P36544, 23-502: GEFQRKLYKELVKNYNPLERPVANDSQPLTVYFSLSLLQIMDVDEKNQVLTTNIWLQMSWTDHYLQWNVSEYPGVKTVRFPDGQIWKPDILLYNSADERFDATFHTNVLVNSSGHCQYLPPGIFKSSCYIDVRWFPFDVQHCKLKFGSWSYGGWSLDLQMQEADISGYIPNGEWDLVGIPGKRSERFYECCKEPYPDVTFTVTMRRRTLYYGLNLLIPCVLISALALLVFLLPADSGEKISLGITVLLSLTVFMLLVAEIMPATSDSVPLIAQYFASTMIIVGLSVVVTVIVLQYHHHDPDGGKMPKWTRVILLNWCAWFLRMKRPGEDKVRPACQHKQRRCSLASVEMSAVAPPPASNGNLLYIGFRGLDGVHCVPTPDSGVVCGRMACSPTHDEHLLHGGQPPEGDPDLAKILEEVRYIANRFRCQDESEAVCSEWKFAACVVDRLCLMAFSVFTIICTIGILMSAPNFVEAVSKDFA
# Structures can show the parent of a compound that is named as a salt. Where two headings read alike, the source gives them in different places.
# Assays:
# α7 nicotinic receptors [1] = biological target: T1, α7 nicotinic receptors (Rattus norvegicus, UniProt Q05941); conditions: read-out: α7 Ki
# [2] = biological target: T2, rat α7 nicotinic receptors (Rattus norvegicus, UniProt Q05941); experiment: Agonist concentration-response on receptors expressed in X. laevis oocytes; format: cell-based; conditions: for Rat Receptor Max. Response: apparent efficacy, normalized to ACh control
# T2 construct: expressed in transfected cells; host or cells: Xenopus laevis oocytes
# α7 nicotinic receptors [3] = biological target: T1, α7 nicotinic receptors; experiment: biochemical
# [4] = biological target: T3, human α7 nicotinic receptors (Homo sapiens, UniProt P36544); experiment: Agonist concentration-response on receptors expressed in X. laevis oocytes; format: cell-based; conditions: for Human Receptor Max. Response: apparent efficacy, normalized to ACh control
# T3 construct: expressed in transfected cells; host or cells: Xenopus laevis oocytes
# [5] = calculated EC50 for just the ionized form, read-out: Rat Receptor EC50 (Ion), value in parentheses (converted)
# [6] = rat α7 in X. laevis oocytes, integrated current, read-out: Rat Receptor EC50
# [7] = calculated EC50 for just the ionized form, read-out: Human Receptor EC50 (Ion), value in parentheses (converted)
# [8] = 125I-BTX Binding Ki(Ion), inhibitory concentration of the ionized form, calculated assuming only the cationic form interacts
# [9] = human α7 in X. laevis oocytes, integrated current, read-out: Human Receptor EC50
# [10] = 125I-BTX Binding Ki ± S.E.M., rat brain membranes, radioligand 1 nM, mean±S.E.M. of four experiments
compound,measurement,setting,value
"6′-Methyl-3-(2,4-dimethoxybenzylidene)anabaseine [GTS-57]",Ki,α7 nicotinic receptors [1],50 nM
"COc1cc(O)ccc1C=C1CCCN=C1c1cccnc1 [Compound 4-OH-MBA, 3-(2-Methoxy-4-hydroxybenzylidene)anabaseine]",Rat Receptor Max. Response,[2],0.77 ± 0.02
"CN(C)c1ccc(C=CC=C2CCCN=C2c2cccnc2)cc1 [DMACA, 3-(4-Dimethylaminocinnamylidene)anabaseine]",Ki,α7 nicotinic receptors [3],70 nM
"Clc1ccc(C=C2CCCN=C2c2cccnc2)cc1 [GTS-8, 3-(4-Chlorobenzylidene)anabaseine]",Ki,α7 nicotinic receptors [3],1100 nM
"COc1ccc(/C=C2\CCCN=C2c2cccnc2)c(OC)c1 [GTS-21, 3-(2,4-Dimethoxybenzylidene)anabaseine]",EC50,[2]; [5],1800 nM
same,EC50,[2]; [6],2900 ± 80 nM
same,EC50,[4]; [7],3700 nM
same,Ki,α7 nicotinic receptors [3]; [8],81 nM
same,Ki,"α7 nicotinic receptors [3]; Ki for inhibition of iodinated BTX binding calculated from saturation experiments, saturation (Scatchard) experiments",173 nM
"Cc1ccc(C2=NCCCC2)cn1 [GTS-26, 6′-Methylanabaseine]",Ki,α7 nicotinic receptors [3],400 nM
"Cc1ncccc1C1=NCCCC1 [GTS-27, 2′-Methylanabaseine]",Ki,α7 nicotinic receptors [3],> 10000 nM
"Cc1ccncc1C1=NCCCC1 [GTS-28, 4′-Methylanabaseine]",Ki,α7 nicotinic receptors [3],> 10000 nM
"COc1cc(OC)c(C=C2CCCN=C2c2cccnc2)c(OC)c1 [GTS-35, 3-(2,4,6-Trimethoxybenzylidene)anabaseine]",Ki,α7 nicotinic receptors [3],58 nM
"Clc1ccc(C=C2CCCN=C2c2cccnc2)c(Cl)c1 [GTS-38, 3-(2,4-Dichlorobenzylidene)anabaseine]",Ki,α7 nicotinic receptors [3],> 10000 nM
"Cc1cc(C)c(C=C2CCCN=C2c2cccnc2)c(C)c1 [GTS-40, 3-(2,46,-Trimethylbenzylidene)anabaseine]",Ki,α7 nicotinic receptors [3],1500 nM
"Cc1ccc(C=C2CCCN=C2c2cccnc2)cc1 [GTS-48, 3-(4-Methylbenzylidene)anabaseine]",Ki,α7 nicotinic receptors [3],17000 nM
"COc1ccc(C=C2CCCN=C2c2cccnc2)c(O)c1 [GTS-51, 3-(2-Hydroxy-4-methoxybenzylidene)anabaseine]",Rat Receptor Max. Response,[2],0.82 ± 0.06
same,EC50,[2]; [5],1100 nM
same,EC50,[2]; [6],3300 ± 800 nM
same,Human Receptor Max. Response,[4],0.53 ± 0.05
same,EC50,[4]; [7],670 nM
same,EC50,[4]; [9],2100 ± 800 nM
same,Ki,α7 nicotinic receptors [3]; [10],317 ± 67 nM
same,Ki,α7 nicotinic receptors [3]; [8],105 nM
"Oc1ccc(C=C2CCCN=C2c2cccnc2)c(O)c1 [GTS-52, 3-(2,4-Dihydroxybenzylidene)anabaseine]",Rat Receptor Max. Response,[2],0.67 ± 0.03
same,EC50,[2]; [5],2000 nM
same,EC50,[2]; [6],3900 ± 600 nM
same,Human Receptor Max. Response,[4],0.49 ± 0.02
same,EC50,[4]; [7],1600 nM
same,EC50,[4]; [9],3200 ± 500 nM
same,Ki,α7 nicotinic receptors [3]; [10],203 ± 5 nM
same,Ki,α7 nicotinic receptors [3]; [8],102 nM
"COc1ccc(C=C2CCC[N+](C)=C2c2cccnc2)c(OC)c1 [GTS-58, 1-Methyl-3-(2,4-djmethoxybenzylidene)anabaseine trifluoroacetate]",Ki,α7 nicotinic receptors [1],> 20000 nM
"Cc1cncc(C2=NCCCC2)c1 [GTS-60, 5′-Methylanabaseine]",Ki,α7 nicotinic receptors [3],80 nM
"COc1ccc(C=C2CCCN=C2c2ccccc2)c(OC)c1 [GTS-63, 2-Phenyl-3-(2,4-dimethoxybenzylidene)-4,5,6-trihydropyridine]",Ki,α7 nicotinic receptors [3],> 10000 nM
